From PubChem BioAssay
Only some compounds are listed: those with a hit (about 2.1% of all), similar ones and a draw of the others.
miR-21 FLuc = raises the signal of a miR-21 reporter; HeLa miR-21 FLuc reporter, luciferase, 48 h; Potency, µM (top dose mostly 38.3 µM), for inactives: at the highest dose reporter change, positive = more light; AID 2288; 340,000 tested, under 10 active; active = well fitted rising curve with a large enough effect; inconclusive = small, poorly fitted or top-dose-only effect; inactive = no such curve, though single readings can be large or run the other way;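 note: % of control where 0% means no effect; miR-21 action dims this reporter so a rising signal means less miR-21 action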
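Luminescence from a firefly luciferase reporter carrying a miR-21 binding site downstream, stably expressed under a CMV promoter in HeLa cells that make miR-21 endogenously, reports miRNA modulation after 48 h compound exposure up to approximately 40uM final.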
GRP78 ERSR act = inducers of ER stress response in human glioma cells; hit rate 0.02% among 420,000; AID 602332; Potency, µM, for inactives: at the top dose activation, actives largely listed as activators; U87-MG GRP78 promoter luciferase reporter, 16 h; also: potency is read from the fitted curve at half-maximal effect; series mostly up to about 76 µM; % of control where 0% means no effect; nearly all actives have a fitted effect of over 35% in size
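ERSR induction read as luciferase luminescence (Bright-Glo, 10 min at room temperature) in stably transfected human U87-MG glioma cells exposed to compounds for 16 h, using GRP78 as sensor.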
Nrf2 activator = Nrf2 pathway activation; AREc32 ARE-luciferase reporter (MCF7-derived line), luminescence, 24 h; Potency, µM (titrated, usually from 46.1 µM), for the others: at the highest dose activation, most hits filed as activators; hit rate 0.31% among 410,000; AID 624171; also: potency is read from the fitted curve at half-maximal effect; % of control where 0% means no effect; nearly all actives have a fitted effect of over 65% in size
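Reporter line AREc32 (ARE-Fluc), seeded overnight in OPTI-MEM with 5% FBS; compound pin-transferred, 24 hr at 37 deg C, 5% CO2; luminescent read-out.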
Nrf2 inh = inhibitors of Nrf2 signaling; A549 ARE-Fluc reporter, luciferase luminescence, 18-24 h; Potency, µM (top dose mostly 46 µM), for the others: at the highest dose activity change, negative = inhibition, usual class: inhibitors; hit rate 2.1% among 360,000; AID 504444; also: potency is read from the fitted curve at half-maximal effect; % is scaled to controls: 0 for no effect and ±100 for the full control effect; nearly all actives have a fitted effect of over 60% in size
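Nrf2 function is reported as luminescence of an ARE-controlled luciferase in A549 cells. Compounds were tested at several concentrations, and a CellTiter-Fluor read on the same wells flagged cytotoxicity.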
A549 tox-1 = A549 cytotoxicity, counter-screen for Nrf2 inhibitors; A549 ARE-Fluc cells, CellTiter-Fluor viability, 18-24 h; Potency, µM (series often up to 46 µM), inactives show at the highest dose activity change, negative = cytotoxicity, usual class: inhibitors; hit rate 0.16% among 390,000; also: potency is read from the fitted curve at half-maximal effect; % is scaled to controls: 0 for no effect and ±100 for the full control effect
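A549 ARE-Fluc cells in 5% FBS OPTI-MEM, 5000 cells/well, rested 2 h then exposed to compounds in concentration-response for 18-24 h at 37 °C. Viability by CellTiter-Fluor fluorescence (Ex 405/Em 525) after 30 min; luciferase luminescence (BugLite, 15 min, RT) read afterwards.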
PTAP TSG101 blk = blocks PTAP/TSG101 interaction to inhibit HIV-1 budding; Fluorescence polarization, FITC-PTAP peptide / Tsg101 binding; Potency, µM (top dose mostly 115 µM), for inactives: at the top dose activity change, negative = inhibition, hits mostly inhibitors; 340,000 tested, under 10 active; Q99816; active = well fitted inhibition curve with a large enough effect in the main read-out, with a control signal flat, not every such curve was filed as active; inconclusive = small, poorly fitted or top-dose-only effect, or effect the other way, or a change in a side signal; inactive = no such curve, though single readings can be large or run the other way; also: potency is read from the fitted curve at half-maximal effect; % of control where 0% means no effect
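Fluorescence polarization binding of Tsg101 binding domain (10 uM final) to FITC-labeled PTAP peptide (50 nM final) in HEPES pH 7.5 buffer with NaCl, Tween 20, EDTA, TCEP. Compounds added before peptide; binding 20 min at RT.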
FLuc counter 3 = firefly luciferase inhibition, Nrf2 hit validation. shares compounds with Nrf2 inh. purified firefly luciferase, luminescence inhibition. Potency, µM (highest dose often 57.5 µM), for the others: top-dose activity change, negative = inhibition, hits mostly inhibitors. hit rate 4% among 1,400; also: potency is read from the fitted curve at half-maximal effect; % is scaled to controls: 0 for no effect and ±100 for the full control effect; nearly all actives have a fitted effect of over 65% in size
A549 tox-2 = toxic to A549 ARE-Fluc cells in Nrf2 counterscreen; Potency, µM (series often up to 46.1 µM), inactives show at the top dose activity change, negative = cytotoxicity, most hits filed as inhibitors; A549 ARE-Fluc cells, cytotoxicity counterscreen; hit rate 2% among 1,400; shares compounds with Nrf2 inh; AID 720523;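 also: potency is read from the fitted curve at half-maximal effect; cells exposed to compounds for 18 to 24 hours; % is scaled to controls: 0 for no effect and ±100 for the full control effect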
Nrf2 ARE inh = reduces Nrf2 ARE reporter signal in A549 cells. shares compounds with Nrf2 inh. A549 ARE-firefly luciferase reporter, luminescence. Potency, µM (doses to about 46.1 µM), for inactives: top-dose activity change, negative = inhibition, actives largely listed as inhibitors. hit rate 74% among 1,400; also: potency is read from the fitted curve at half-maximal effect; % is scaled to controls: 0 for no effect and ±100 for the full control effect; nearly all actives have a fitted effect of over 65% in size
* hit, by the source's call; ? = inconclusive; nt = no result; [ ] = another dose, or the depositor's remark. Unless noted, calls follow the shape of the dose curve; as a rule, active = well fitted curve in the direction sought with a large enough effect; inconclusive = small, poorly fitted or top-dose-only effect, or another doubt; inactive = no such curve, though single readings can be large; an effect the other way counts as inactive or inconclusive.

SMILES	miR-21 FLuc	GRP78 ERSR act	Nrf2 activator	Nrf2 inh	A549 tox-1	PTAP TSG101 blk	FLuc counter 3	A549 tox-2	Nrf2 ARE inh
N#Cc1nc(N2CCCCC2)nc(N2CCCCC2)n1	nt	-2.5%	nt	2.06µM*	-3.5%	nt	-13.4%	-23.3%	5.17µM*
CCNc1nc(C#N)nc(N2CCCCC2)n1	nt	-1.9%	nt	4.61µM*	-10.0%	nt	-9.6%	-23.4%	7.31µM*
CCNc1nc(NC(C)(C)C)nc(N2CCCC2)n1	-11.0%	-2.4%	-0.9%	-15.8%	?	-1.1%	nt	nt	nt
CNc1ccc(/C=C/c2ccnc3ccccc23)cc1	nt	-2.0%	nt	nt	nt	nt	nt	nt	nt
O=C(Nc1cccc(Cl)c1)c1ccc(S(=O)(=O)NCC2CCCO2)cc1 (stereo not given)	21.6%	2.5%	2.2%	4.61µM*	-16.8%	-2.4%	-0.7%	-3.2%	13µM*
O=C(Nc1ccccc1)c1ccc(S(=O)(=O)NCC2CCCO2)cc1 (stereo not given)	-5.6%	1.4%	-0.9%	2.6%	0.9%	-3.6%	nt	nt	nt
COc1ccc(Cl)cc1NC(=O)c1cc2c(=O)n3ccccc3nc2s1	-22.1%	nt	10.0%	1.64µM*	-25.0%	nt	-8.3%	?	23.1µM*
Cc1cc(C)c(S(=O)(=O)NCc2ccncc2)c(C)c1	16.7%	-0.5%	0.3%	?	-17.5%	-0.6%	0.107µM*	-1.7%	0.206µM*
Cc1ccc(S(=O)(=O)NCc2ccncc2)c(C)c1C	1.3%	0.3%	0.5%[9.22 µM]	1.46µM*	-6.4%	-1.7%	-0.1%	-7.1%	6.51µM*
Cc1ccc(S(=O)(=O)NCc2ccccn2)c(C)c1C	-1.0%	-1.0%	-0.4%	-3.1%	-0.2%	0.9%	nt	nt	nt
Cc1cc(C)c(S(=O)(=O)NCCc2ccncc2)c(C)c1	-9.8%	-4.3%	0.2%	-28.2%	-3.2%	-2.5%	nt	nt	nt
COc1cc(C)c(Br)cc1S(=O)(=O)NCc1ccncc1	15.0%	-1.0%	-0.1%	3.26µM*	-6.4%	-0.5%	1.2%	5.5%	-32.4%
COc1ccccc1/C=C/c1cnccn1	nt	5.2%	nt	nt	nt	nt	nt	nt	nt
Cc1ccnc2ccc3ccccc3c12	nt	-5.3%	nt	nt	nt	nt	-1.2%	-22.9%	6.51µM*
O=S(=O)(O)CC(S)CS (stereo not given)	nt	-4.0%	nt	nt	nt	nt	nt	nt	nt
OC(c1ccc2c(c1)CN(Cc1ccc3nsnc3c1)CCO2)C1CCCCC1 (stereo not given)	nt	1.9%	nt	nt	nt	nt	nt	nt	nt
CC(=O)N(C)C1=C(N2CCOCC2)C(=O)c2ccccc2C1=O	29.1%	-15.9%	-2.2%	0.461µM*	8.2µM*	-3.5%	-19.7%	16.4µM*	5.8µM*
Cc1ccc(NC(=O)COc2ccccc2C#N)cc1S(=O)(=O)N1CCCCCC1	nt	-1.9%	3.5%	1.7%	-17.4%	-0.3%	nt	nt	nt
Cc1ccc(NC(=O)COc2cccnc2[N+](=O)[O-])cc1S(=O)(=O)N1CCCCC1	10.0%	-2.8%	1.2%[9.22 µM]	7.31µM*	?	-2.1%	-17.3%	-9.8%	?
CCCC(=O)NC(NC(=S)Nc1ccc(N=Nc2ccccc2)cc1)C(Cl)(Cl)Cl (stereo not given)	29.2%	-7.0%	-1.1%	8.2µM*	?	-2.9%	-20.9%	?	7.31µM*
Cc1cccc[n+]1CC(=O)/C=C1\N(C)c2ccccc2C1(C)C	25.6%	-1.9%	0.5%	5.17µM*	?	1.2%	3.4%	-26.6%	7.31µM*

A stretch taken from the entries so far:
SMILES	miR-21 FLuc	GRP78 ERSR act	Nrf2 activator	Nrf2 inh	A549 tox-1	PTAP TSG101 blk	FLuc counter 3	A549 tox-2	Nrf2 ARE inh
Cc1cc(C)c(S(=O)(=O)NCCc2ccncc2)c(C)c1	-9.8%	-4.3%	0.2%	-28.2%	-3.2%	-2.5%	nt	nt	nt
COc1cc(C)c(Br)cc1S(=O)(=O)NCc1ccncc1	15.0%	-1.0%	-0.1%	3.26µM*	-6.4%	-0.5%	1.2%	5.5%	-32.4%
COc1ccccc1/C=C/c1cnccn1	nt	5.2%	nt	nt	nt	nt	nt	nt	nt
Cc1ccnc2ccc3ccccc3c12	nt	-5.3%	nt	nt	nt	nt	-1.2%	-22.9%	6.51µM*
